# From DBAASP
# Experiments:
# Assay in all cases: ≥ marks a high value that may be exact or a test limit, other limits are often not marked, values filed in µg/mL are converted to µM
# [1] = system: Escherichia coli K-12
# [2] = system: Staphylococcus aureus ATCC 12600
# [3] = system: Pseudomonas aeruginosa ATCC 27853
Compound,MIC [1],MIC [2],MIC [3]
CC[C@H](C)[C@H](NC(=O)[C@@H]1CCCN1C(=O)[C@H](CCCCN)NC(=O)[C@H](CC(C)C)NC(=O)[C@H](C)NC(=O)[C@@H](NC(=O)[C@H](Cc1cnc[nH]1)NC(=O)[C@H](CC(C)C)NC(=O)[C@@H](NC(=O)[C@@H](NC(=O)[C@H](CCCN=C(N)N)NC(=O)[C@H](C)NC(=O)[C@@H]1CCCN1C(=O)[C@H](CO)NC(=O)[C@H](CCCCN)NC(=O)[C@H](Cc1ccccc1)NC(=O)[C@@H](NC(=O)[C@H](CCCCN)NC(=O)[C@H](CC(C)C)NC(=O)[C@H](Cc1ccccc1)NC(=O)[C@H](CO)NC(=O)[C@H](CCCCN)NC(=O)[C@H](Cc1c[nH]c2ccccc12)NC(=O)[C@@H](N)CCCCN)[C@@H](C)O)[C@@H](C)O)C(C)C)[C@@H](C)O)C(=O)N[C@@H](CO)C(=O)N[C@@H](CO)C(=O)O [KWKSFLKTFKSPARTVLHTALKPISS],16 µM,≥ 128 µM,
CC[C@H](C)[C@H](NC(=O)[C@H](C)NC(=O)[C@H](CCCCN)NC(=O)[C@H](Cc1c[nH]c2ccccc12)NC(=O)[C@H](CC(N)=O)NC(=O)[C@@H](N)CC(C)C)C(=O)N[C@@H](CC(C)C)C(=O)N[C@@H](CCCCN)C(=O)N[C@@H](Cc1cnc[nH]1)C(=O)N[C@H](C(=O)N[C@H](C(=O)N[C@@H](CCCCN)C(=O)O)[C@@H](C)CC)[C@@H](C)CC [LNWKAILKHIIK],16 µM,≥ 128 µM,16 µM
